{"source": "ChEMBL document CHEMBL5214958", "about": "“Discovery of novel compounds as potent activators of Sirt3” (Bioorg Med Chem, 2022)", "key": {"[1]": {"target": "T1, NAD-dependent protein deacetylase sirtuin-3, mitochondrial (Homo sapiens) (UniProt Q9NTG7)", "T1 sequence (whole entry)": "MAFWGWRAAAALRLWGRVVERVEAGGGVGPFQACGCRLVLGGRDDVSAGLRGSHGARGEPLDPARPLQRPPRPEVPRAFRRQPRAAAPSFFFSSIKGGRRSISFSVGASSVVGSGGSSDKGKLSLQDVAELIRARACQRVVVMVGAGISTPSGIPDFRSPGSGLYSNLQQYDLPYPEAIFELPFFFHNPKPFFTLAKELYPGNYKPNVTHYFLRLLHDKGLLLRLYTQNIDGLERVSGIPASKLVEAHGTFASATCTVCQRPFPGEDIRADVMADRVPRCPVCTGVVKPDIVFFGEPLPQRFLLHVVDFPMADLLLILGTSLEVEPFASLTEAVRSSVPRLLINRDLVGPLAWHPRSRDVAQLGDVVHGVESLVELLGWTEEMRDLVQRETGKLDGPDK", "assay": "(§1) Modulation of human Sirt3 (118 to 399 residues) deacetylation activity under non-steady state assessed as substrate deacetylation at low enzyme concentration with [E]0/[NAD+]0 ratio of 0.1 at 10 uM incubated for 5 mins using MnSOD peptide as substrate in presence of NAD+ by HPLC-assay relative to control", "details": "filed as modulator"}, "[2]": {"target": "T1, NAD-dependent protein deacetylase sirtuin-3, mitochondrial (Homo sapiens)", "assay": "as §1, with “25” for “10”", "details": "filed as modulator"}}, "data": [{"smiles": "CCCCNC(=O)COc1ccc2c(c1)CCc1ccccc1C2NC(=O)CCCOc1cc([N+](=O)[O-])c(C(C)O)cc1OC", "note": "(configuration not stated)", "values": [{"measurement": "Activity", "setting": "[1]", "result": 109, "unit": "%"}, {"measurement": "Activity", "setting": "[2]", "result": 122, "unit": "%"}]}]}
